Experimental data published in PubChem BioAssay AID588591 (National Center for Advancing Translational Sciences (NCATS), 2011).
Only a part is listed here, and it is no random draw. Results filed as inconclusive are left out. The source made the active and inactive calls. Calls follow the shape of the dose curve; as a rule, active = well fitted inhibition curve with a large enough effect; inconclusive = small, poorly fitted or top-dose-only effect, or another doubt; inactive = no such curve, though single readings can be large or run the other way.

By UniProt entry, the sequences of proteins in these tests, tags left out. Where a name states a change or a piece, a line headed by the entry shows the natural chain unless it says otherwise.
UniProt Q9Y253: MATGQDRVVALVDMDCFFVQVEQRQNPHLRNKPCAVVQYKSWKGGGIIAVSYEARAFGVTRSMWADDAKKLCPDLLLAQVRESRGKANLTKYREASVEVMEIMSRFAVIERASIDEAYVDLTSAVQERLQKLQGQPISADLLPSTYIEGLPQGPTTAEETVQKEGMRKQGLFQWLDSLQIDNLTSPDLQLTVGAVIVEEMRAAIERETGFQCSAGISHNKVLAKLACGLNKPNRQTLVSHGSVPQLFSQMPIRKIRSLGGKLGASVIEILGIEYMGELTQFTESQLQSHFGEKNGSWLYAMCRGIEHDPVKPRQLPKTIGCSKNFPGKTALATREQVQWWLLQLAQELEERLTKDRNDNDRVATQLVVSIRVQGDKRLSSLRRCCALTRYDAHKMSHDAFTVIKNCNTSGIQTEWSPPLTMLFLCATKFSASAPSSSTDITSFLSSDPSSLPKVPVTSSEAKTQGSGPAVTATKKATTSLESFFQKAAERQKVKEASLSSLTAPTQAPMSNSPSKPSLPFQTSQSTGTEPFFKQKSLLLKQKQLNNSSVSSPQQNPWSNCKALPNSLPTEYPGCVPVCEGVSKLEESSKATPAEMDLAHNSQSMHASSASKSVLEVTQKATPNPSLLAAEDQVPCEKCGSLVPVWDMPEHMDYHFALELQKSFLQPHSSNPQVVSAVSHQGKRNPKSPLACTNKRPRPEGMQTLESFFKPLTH

Each molecule was assayed against DNA polymerase eta (Homo sapiens) (UniProt Q9Y253) (assay: qHTS for Inhibitors of Polymerase Eta). Conditions: recombinant Pol eta, fluorescent DNA replication assay; series mostly up to 114 µM; activity change, negative = inhibition: at the top concentration.
% is scaled to controls: 0 for no effect and ±100 for the full control effect; potency is read from the fitted curve at half-maximal effect.

Structure (SMILES) | activity change, negative = inhibition | Potency
O=[N+]([O-])c1ccc(O)c(/C=N/Nc2ccc([N+](=O)[O-])cc2[N+](=O)[O-])c1 | inactive: -2.17% | –
O=C(OC1CN2CCC1CC2)c1cccc(Cl)c1 (configuration not stated) | inactive: -16.7% | –
C(Cc1nn[nH]n1)Cc1nn[nH]n1 | inactive: -12.3% | –
Nc1ccc([As](=O)(O)c2ccc([N+](=O)[O-])cc2)cc1 | inactive: -8.21% | –
c1ccc(-c2nn[nH]n2)c(-c2nn[nH]n2)c1 | inactive: 7.61% | –
Cc1ccc(NP(=O)(Oc2cccc(C)c2)Oc2cccc(C)c2)nc1 | inactive: -4.76% | –
O=C(NC1CCS(=O)(=O)C1)NP(=S)(Oc1ccccc1)Oc1ccccc1 (configuration not stated) | inactive: -4.45% | –
CCNC(=S)/N=C(\N)N[N+](=O)[O-] | inactive: -2.04% | –
O=P1(N(CCCl)CCCl)OCCC2CCCCN21 (configuration not stated) | inactive: -11.1% | –
O=C(OC1CN2CCC1CC2)c1ccccc1 (configuration not stated) | inactive: 1.44% | –
CN(C(=O)Cc1ccc(Cl)c(Cl)c1)[C@@H]1CCCC[C@@H]1N1CCCC1 | inactive: -3.95% [at 57.1 µM] | –
CCC(=O)N1C2C3N(C(=O)CC)C1C1N(C(=O)CC)C(C(N1C(=O)CC)N3C(=O)CC)N2C(=O)CC | inactive: 3.82% | –
COC(=O)c1cc2c(s1)N=C(c1ccccc1)N(C)P2(=O)N1CCOCC1 (configuration not stated) | inactive: -4.54% | –
CC(=O)NC(SC(=S)N(CC(C)C)CC(C)C)C(Cl)(Cl)Cl (configuration not stated) | inactive: -18.1% | –
Cc1ccc(OP(=O)(Nc2ccccn2)Oc2ccc(C)cc2)cc1 | inactive: -5.5% | –
CC(NC(=O)COC(=O)C(O)(c1ccccc1)c1ccccc1)c1ccccc1 (configuration not stated) | inactive: -16.4% | –
Cc1ccccc1OP(=O)(Nc1ccccn1)Oc1ccccc1C | inactive: -22.1% | –
CN(C)C(=O)Oc1noc2ccccc12 | inactive: -18.4% | –
O=P1(Nc2nc3ccc(Cl)cc3s2)COc2ccccc2O1 (configuration not stated) | inactive: -19.6% | –
CCOc1ccc(C2=NCC(CBr)S2)cc1 (configuration not stated) | inactive: -2.8% | –
CC(C)(C)C(=O)NC(Sc1ccccc1)C(Cl)(Cl)Cl (configuration not stated) | inactive: -25.5% | –
CCc1cc(O)c([N+](=O)[O-])c(C)c1[N+](=O)[O-] | inactive: -16.6% | –
Cc1ccccc1CN(C)C(=O)COC(=O)C(O)(c1ccccc1)c1ccccc1 | inactive: -16.2% | –

Structure (SMILES) | activity change, negative = inhibition | Potency
C[C@H]1OP(=O)(Oc2ccccc2)C[C@@H]2O[C@@H]21 (some centres not stated) | inactive: -9.71% | –
C[C@@H]1C=CCP(=O)(Oc2ccccc2)O1 (some centres not stated) | inactive: -19.2% | –
CC(=O)c1ccc(N2CC2c2ccncc2)cc1 (configuration not stated) | inactive: -22% | –
COC(=O)C1(C)COP(=O)(NCc2ccccc2)OC1 (configuration not stated) | inactive: -5.51% | –
CC(=O)Nc1ccc([As](=O)(O)O)c(O)c1 | inactive: -21.6% | –
CC(=O)Nc1ccc(Oc2c([N+](=O)[O-])cc([N+](=O)[O-])cc2[N+](=O)[O-])cc1 | inactive: -3.97% | –
Cc1ccc(N/C(=N/P(=O)(N2CCOCC2)N2CCOCC2)N2CCOCC2)cc1 | inactive: -18.1% | –
NC(=O)c1cc([N+](=O)[O-])cc([N+](=O)[O-])c1N | inactive: -17.4% | –
CN1CCCC(OC(=O)C(c2ccccc2)c2ccccc2)C1 (configuration not stated) | inactive: -14.8% | –
COc1ccccc1OP(=O)(Nc1ccc(C)cn1)Oc1ccccc1OC | inactive: 1.79% | –
Cc1ccc(OP(=O)(Nc2nccs2)Oc2ccc(C)cc2)cc1 | inactive: -21.3% | –
Oc1ccccc1CNc1ccccn1 | inactive: -2.86% | –
O=C(NC(Sc1ccncn1)C(Cl)(Cl)Cl)c1ccccc1 (configuration not stated) | inactive: -6.49% | –
Nc1cc(N)c2nonc2c1[N+](=O)[O-] | inactive: -16.4% | –
CC(C)CC(=O)NC(Sc1ccc(Cl)cc1)C(Cl)(Cl)Cl (configuration not stated) | inactive: -0.237% | –
O=P(Nc1nc2ccc(Cl)cc2s1)(c1ccccc1)c1ccccc1 | inactive: -19.8% | –
CN(C)P(=O)(N(C)C)n1c(Nc2ccccc2)nnc1-c1ccccc1 | inactive: -17.6% | –
CC(=O)Nc1ccc([As](=O)(O)O)cc1 | inactive: -14.9% | –
O=C(O)c1ccccc1[As](=O)(O)O | inactive: 8.83% | –
CCCC1OP(N)(=O)OCC1CC (configuration not stated) | inactive: -13.2% | –
Cc1cc(SC(NC(=O)c2ccc(F)cc2)C(Cl)(Cl)Cl)ncn1 (configuration not stated) | inactive: -6.22% | –
CCOP(=O)(Nc1ccccc1)OCC | inactive: -11.1% | –
CN(C(=O)Cc1ccc(Cl)c(Cl)c1)[C@H]1CCCC[C@@H]1N1CCCC1 | – | inactive

Structure (SMILES) | activity change, negative = inhibition | Potency
Cc1ccc(NP(=O)(Oc2ccccc2F)Oc2ccccc2F)nc1 | inactive: 1.63% | –
Nc1cccc2ccc([As](=O)(O)O)cc12 | – | active: 22.4 µM
CCN(N=Nc1nonc1N)c1nonc1N | inactive: -4.13% | –
O=P1(N(CCCl)CCCl)OCCCS1 (configuration not stated) | inactive: -12.4% | –
O=C(Nc1cc([As](=O)(O)O)ccc1O)c1ccccc1 | inactive: 5.71% | –
O=[N+]([O-])c1ncn(CCn2ncnc2[N+](=O)[O-])n1 | inactive: -6.73% | –
CC(C)(C)C(=O)NC(Sc1ccncn1)C(Cl)(Cl)Cl (configuration not stated) | inactive: -7.58% | –
O=C(O)CNc1ccc([As](=O)(O)O)cc1 | inactive: 3.42% | –
COC(=O)C1(C)COP(=O)(Nc2ccccc2)OC1 (configuration not stated) | inactive: -18.3% | –
O=[N+]([O-])c1cccc(NC2=NCC(CBr)S2)c1 (configuration not stated) | inactive: -17.9% | –
COc1ccc(C2=NCC(CBr)S2)cc1 (configuration not stated) | inactive: -18.1% | –
Cc1ccc(NP(=O)(Oc2ccccc2)Oc2ccccc2)nc1 | inactive: -3.88% | –
CC(=O)N1C2C3N(C(C)=O)C1C1N(C(C)=O)C(C(N1C(C)=O)N3C(C)=O)N2C(C)=O | inactive: -4.96% | –
O=[N+]([O-])c1cccc2n[nH]nc12 | inactive: 3.59% | –
CCN(/C(=N/P(=O)(N1CCOCC1)N1CCOCC1)N1CCOCC1)c1ccc(OC)cc1 | inactive: -11.2% | –
Nc1ccc([As](=O)(O)c2ccc(N)cc2)cc1 | inactive: -19.3% | –
CC1CCN(C(=O)Oc2c(Cl)cc(Cl)c3cccnc23)CC1 | inactive: -15.9% | –
c1cc(-c2nn[nH]n2)ccc1-c1nn[nH]n1 | inactive: -10% | –
CC(C)c1nc(Nc2ccccc2)n(P(=O)(N(C)C)N(C)C)n1 | inactive: -20.6% | –
CC(C)=N/N=C(\N)N[N+](=O)[O-] | inactive: -16.2% | –
CN(C)C(=O)OCCc1n(C)cc[n+]1C | inactive: -22.9% | –
